Measured values as given in patent US12404295B2, “(Hetero)aryl-methyl-thio-beta-D-galactopyranoside derivatives” (Idorsia Pharmaceuticals Ltd, priority 2019, dated 2025).

By UniProt entry, the sequences of proteins in these tests, tags left out.
UniProt P09382, whole entry: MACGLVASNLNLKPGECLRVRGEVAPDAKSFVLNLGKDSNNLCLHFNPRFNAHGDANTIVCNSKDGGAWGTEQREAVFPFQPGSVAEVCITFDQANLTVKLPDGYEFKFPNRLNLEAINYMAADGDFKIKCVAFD

Target: human Gal-1 (hGal-1) (Homo sapiens (Human), UniProt P09382)
Experiment: competitive binding assay: biotinylated hGal-1 binding to microplate-adsorbed asialofetuin (ASF)
Details: read-out: IC50 (Galectin-1 inhibition); Table 15

Compound | IC50 [µM]
CS(=O)(=O)N1CC(O)(C(S[C@@H]2O[C@H](CO)[C@H](O)[C@H](n3cc(-c4cc(F)c(F)c(F)c4)nn3)[C@H]2O)c2ccccc2C(F)(F)F)C1 (stereo partly drawn) [Example 2..57.112., (2S,3R,4S,5R,6R)-2-(((3-Hydroxy-1-(methylsulfonyl)azetidin-3-yl)(2-(trifluoromethyl)phenyl)methyl)thio)-6-(Hydroxymethyl)-4-(4-(3,4,5-trifluorophenyl)-1H-1,2,3-triazol-1-yl)tetrahydro-2H-pyran-3,5-diol] | 0.58
COC(=O)N1CC(O)(C(S[C@@H]2O[C@H](CO)[C@H](O)[C@H](n3cc(-c4cc(F)c(F)c(F)c4)nn3)[C@H]2O)c2ccccc2C(F)(F)F)C1 (stereo partly drawn) [Example 2..58.112., Methyl 3-((((2S,3R,4S,5R,6R)-3,5-dihydroxy-6-(hydroxymethyl)-4-(4-(3,4,5-trifluorophenyl)-1H-1,2,3-triazol-1-yl)tetrahydro-2H-pyran-2-yl)thio)(2-(trifluoromethyl)phenyl)methyl)-3-hydroxyazetidine-1-carboxylate] | 1.47
CS(=O)(=O)N1CC(O)([C@@H](S[C@@H]2O[C@H](CO)[C@H](O)[C@H](n3cc(-c4cc(F)c(F)c(F)c4)nn3)[C@H]2O)c2ccccc2C(F)(F)F)C1 [Example 2..57.112S., (2S,3R,4S,5R,6R)-2-(((S)-(3-Hydroxy-1-(methylsulfonyl)azetidin-3-yl)(2-(trifluoromethyl)phenyl)methyl)thio)-6-(hydroxymethyl)-4-(4-(3,4,5-trifluorophenyl)-1H-1,2,3-triazol-1-yl)tetrahydro-2H-pyran-3,5-diol] | 76.5
CO[C@@H]1[C@@H](n2cc(-c3ccc(F)c(F)c3F)nn2)[C@@H](O)[C@@H](CO)O[C@H]1SC(c1ncccc1C)C1(O)CCC(F)(F)CC1 (stereo partly drawn) [Example 21.44.126.I., (2R,3R,4S,5R,6S)-6-(((4,4-Difluoro-1-hydroxycyclohexyl)(3-methylpyridin-2-yl)methyl)thio)-2-(hydroxymethyl)-5-methoxy-4-(4-(2,3,4-trifluorophenyl)-1H-1,2,3-triazol-1-yl)tetrahydro-2H-pyran-3-ol] | 0.38
CS(=O)(=O)N1CC(O)([C@H](S[C@@H]2O[C@H](CO)[C@H](O)[C@H](n3cc(-c4cc(F)c(F)c(F)c4)nn3)[C@H]2O)c2ccccc2C(F)(F)F)C1 [Example 2..57.112R., (2S,3R,4S,5R,6R)-2-(((R)-(3-Hydroxy-1-(methylsulfonyl)azetidin-3-yl)(2-(trifluoromethyl)phenyl)methyl)thio)-6-(hydroxymethyl)-4-(4-(3,4,5-trifluorophenyl)-1H-1,2,3-triazol-1-yl)tetrahydro-2H-pyran-3,5-diol] | 1.2
